# Literature values, collected in patent publication US6087346A, “Sigma receptor ligands and the use thereof” (Cambridge Neuroscience, Inc., priority 1996, dated 2000).
# Protein sequences, listed by entry. Tags and fused reporters are not part of them.
# UniProt Q60492, whole entry: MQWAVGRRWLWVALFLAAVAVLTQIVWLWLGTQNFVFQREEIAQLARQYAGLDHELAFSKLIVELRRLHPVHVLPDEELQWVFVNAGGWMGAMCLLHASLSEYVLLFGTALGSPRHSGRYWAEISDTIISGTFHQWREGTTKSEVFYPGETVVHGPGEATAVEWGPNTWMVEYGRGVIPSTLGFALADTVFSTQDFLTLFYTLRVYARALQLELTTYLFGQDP
# Biological target: sigma-1 site (Cavia porcellus, UniProt Q60492)
# Conditions: Hellewell and Bowen (1990); cited from earlier work
smiles,measurement,value
"C=CCN1CCC2(C)c3cc(O)ccc3CC1C2C (stereo not shown) [NANM, N-allyl normetazocine]",affinity for the sigma-1 site compared to the sigma-2 site,nearly two orders of magnitude higher affinity for the sigma-1 site compared to the sigma-2 site
